# In ChEMBL document CHEMBL3585322, “Synthesis, enantiomeric separation and docking studies of spiropiperidine analogues as ligands of the nociceptin/orphanin FQ receptor” (2014):
# Sequences of proteins named here, by UniProt entry; tags and fusion partners are left off.
# UniProt P41146, whole entry: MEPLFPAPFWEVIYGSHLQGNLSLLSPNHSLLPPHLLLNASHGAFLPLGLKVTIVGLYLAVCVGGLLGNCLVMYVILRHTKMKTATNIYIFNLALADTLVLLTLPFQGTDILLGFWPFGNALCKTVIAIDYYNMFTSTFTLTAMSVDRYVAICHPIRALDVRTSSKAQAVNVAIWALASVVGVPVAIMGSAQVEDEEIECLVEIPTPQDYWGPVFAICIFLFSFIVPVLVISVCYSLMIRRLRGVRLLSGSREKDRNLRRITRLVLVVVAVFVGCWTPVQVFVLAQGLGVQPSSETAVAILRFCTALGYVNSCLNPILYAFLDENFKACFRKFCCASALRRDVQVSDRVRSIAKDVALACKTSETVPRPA
# Molecular target: Nociceptin receptor (Homo sapiens, UniProt P41146)
# Test: Agonist activity at human recombinant NOP receptor expressed in CHO cells co-expressing C-terminally modifed Gaqi5 protein by Fluo-4AM dye based calcium mobilization assay
structure (smiles),measurement,value
O=C(O)C(=O)O.O=C1NCN(c2ccccc2)C12CCN(CC1COc3ccccc3O1)CC2 (stereo unspecified),pEC50,6.49
